{
  "sequences": {"note": "Chains of the proteins cited; added tags and fusions are not shown. Lines headed by an entry give the natural chain unless they say otherwise; changes in a name come on top.", "UniProt P09923": "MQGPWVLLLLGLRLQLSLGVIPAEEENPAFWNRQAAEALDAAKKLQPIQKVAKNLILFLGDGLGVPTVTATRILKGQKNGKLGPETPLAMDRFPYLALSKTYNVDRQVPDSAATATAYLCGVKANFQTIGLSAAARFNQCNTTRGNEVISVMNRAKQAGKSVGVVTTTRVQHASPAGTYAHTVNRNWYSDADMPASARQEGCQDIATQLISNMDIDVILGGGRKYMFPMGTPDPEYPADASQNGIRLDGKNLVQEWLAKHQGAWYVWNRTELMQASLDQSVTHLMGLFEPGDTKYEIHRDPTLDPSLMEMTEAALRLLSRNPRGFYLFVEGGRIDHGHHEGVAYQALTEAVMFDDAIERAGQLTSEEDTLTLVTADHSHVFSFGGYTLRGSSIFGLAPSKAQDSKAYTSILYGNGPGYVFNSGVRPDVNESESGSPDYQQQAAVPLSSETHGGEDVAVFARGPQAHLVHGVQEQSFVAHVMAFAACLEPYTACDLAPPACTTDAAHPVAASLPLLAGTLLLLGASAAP"},
  "source": "PubChem BioAssay AID2544",
  "about": "(Sanford-Burnham Center for Chemical Genomics, 2010)",
  "note": "The entries are a selection whose mix differs from that of the whole data set. Active and inactive are the calls of the source.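 How the source made its calls: active means inhibition reaching a set limit with compound at 10 µM in the primary screen (cut at about 35% in these data); inactive means the rest.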",
  "data": [
    {"biological_target": "Intestinal-type alkaline phosphatase (Homo sapiens) (UniProt P09923)", "test": "human IAP inhibitors, primary screen, biochemical, luminescence, uHTS (AID 2544);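 further: plate controls were DMSO wells with enzyme for no effect and no-enzyme buffer wells for full effect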", "conditions": "purified IAP, CDP-Star luminescence, 30 min; at 10 µM; active compounds read high", "values": [
      {"compound": "Cc1ccc(N/C(=N/P(=O)(N2CCOCC2)N2CCOCC2)N2CCOCC2)cc1", "inhibition": "inactive: 1.5%"},
      {"compound": "COc1ccccc1OP(=O)(Nc1ccc(C)cn1)Oc1ccccc1OC", "inhibition": "inactive: -15.8%"},
      {"compound": "Cc1ccc(OP(=O)(Nc2nccs2)Oc2ccc(C)cc2)cc1", "inhibition": "inactive: -18.2%"},
      {"compound": "Clc1ccc(Cl)c(NC2=NCC(CBr)S2)c1", "note": "(stereo not given)", "inhibition": "inactive: 14%"},
      {"compound": "CN1CCCC(OC(=O)C(c2ccccc2)c2ccccc2)C1", "note": "(stereo not given)", "inhibition": "inactive: -0.4%"},
      {"compound": "CC(C)CC(=O)NC(Sc1ccc(Cl)cc1)C(Cl)(Cl)Cl", "note": "(stereo not given)", "inhibition": "inactive: -18.4%"},
      {"compound": "Nc1cc(N)c2nonc2c1[N+](=O)[O-]", "inhibition": "inactive: 1.6%"},
      {"compound": "Oc1ccccc1CNc1ccccn1", "inhibition": "inactive: 2.7%"},
      {"compound": "Cc1c2non([O-])c-2c(C)[n+](=O)[n+]1[O-]", "inhibition": "inactive: 9.7%"},
      {"compound": "O=C(NC(Sc1ccncn1)C(Cl)(Cl)Cl)c1ccccc1", "note": "(stereo not given)", "inhibition": "inactive: -1.4%"},
      {"compound": "COc1ccc(C2=NCC(CBr)S2)cc1", "note": "(stereo not given)", "inhibition": "inactive: -6.1%"},
      {"compound": "O=[N+]([O-])c1cccc2n[nH]nc12", "inhibition": "inactive: 11.1%"},
      {"compound": "CC(=O)N1C2C3N(C(C)=O)C1C1N(C(C)=O)C(C(N1C(C)=O)N3C(C)=O)N2C(C)=O", "inhibition": "inactive: -1.5%"},
      {"compound": "Cc1ccc(NP(=O)(Oc2ccccc2)Oc2ccccc2)nc1", "inhibition": "inactive: -29.8%"},
      {"compound": "CCc1nc2c(n1)c1c(non1O)c1c2no[n+]1[O-]", "inhibition": "inactive: 19.8%"},
      {"compound": "O=[N+]([O-])c1cc([N+](=O)[O-])c(CCNc2ccccc2)c([N+](=O)[O-])c1", "inhibition": "inactive: 8.8%"},
      {"compound": "Nc1ccc([As](=O)(O)c2ccc(N)cc2)cc1", "inhibition": "inactive: 0.8%"},
      {"compound": "C[N+]1=C2C=CC=CC=C2SC12C([N+](=O)[O-])=CC([N+](=O)[O-])=C[C-]2[N+](=O)[O-]", "note": "(stereo not given)", "inhibition": "inactive: -17.5%"},
      {"compound": "CCN(/C(=N/P(=O)(N1CCOCC1)N1CCOCC1)N1CCOCC1)c1ccc(OC)cc1", "inhibition": "inactive: 4.9%"},
      {"compound": "CC(C)=N/N=C(\\N)N[N+](=O)[O-]", "inhibition": "inactive: -16.5%"},
      {"compound": "CN(C)C(=O)OCCc1n(C)cc[n+]1C", "inhibition": "inactive: 1.5%"},
      {"compound": "CC1CCN(C(=O)Oc2c(Cl)cc(Cl)c3cccnc23)CC1", "inhibition": "inactive: 13.4%"},
      {"compound": "O=C(Nc1cc([As](=O)(O)O)ccc1O)c1ccccc1", "inhibition": "inactive: 21.5%"},
      {"compound": "CC(C)(C)C(=O)NC(Sc1ccncn1)C(Cl)(Cl)Cl", "note": "(stereo not given)", "inhibition": "inactive: -10.1%"},
      {"compound": "O=[N+]([O-])c1ncn(CCn2ncnc2[N+](=O)[O-])n1", "inhibition": "inactive: -2.9%"},
      {"compound": "O=[N+]([O-])c1cccc(NC2=NCC(CBr)S2)c1", "note": "(stereo not given)", "inhibition": "inactive: 9.5%"},
      {"compound": "O=P(Nc1ccccn1)(c1ccc(Br)cc1)c1ccc(Br)cc1", "inhibition": "inactive: -10.8%"},
      {"compound": "CN(C)C1(CNC(=O)c2ccc(Cl)c(S(N)(=O)=O)c2)CCCCC1", "inhibition": "inactive: 22.9%"},
      {"compound": "O=P(Nc1nc2ccccc2s1)(c1ccccc1)c1ccccc1", "inhibition": "inactive: -0.8%"},
      {"compound": "C[C@H]1OP(=O)(Oc2ccccc2)[C@H](O)[C@H](O)[C@H]1N=[N+]=[N-]", "note": "(stereo not given in full)", "inhibition": "inactive: -0.9%"},
      {"compound": "O=[N+]([O-])c1ncn(CCn2cnc([N+](=O)[O-])n2)n1", "inhibition": "inactive: -0.4%"},
      {"compound": "O=[As](O)(c1ccccc1)c1ccc(O)cc1", "inhibition": "inactive: -7.3%"},
      {"compound": "Nc1ccc([As](=O)(O)c2ccc([N+](=O)[O-])cc2)cc1", "inhibition": "inactive: 3.4%"},
      {"compound": "C(Cc1nn[nH]n1)Cc1nn[nH]n1", "inhibition": "inactive: 3%"},
      {"compound": "O=C(OC1CN2CCC1CC2)c1cccc(Cl)c1", "note": "(stereo not given)", "inhibition": "inactive: -4.8%"},
      {"compound": "CC(C)C(=O)NC(Sc1ccccc1)C(Cl)(Cl)Cl", "note": "(stereo not given)", "inhibition": "inactive: 4%"},
      {"compound": "O=P(Nc1nccs1)(c1ccccc1)c1ccccc1", "inhibition": "inactive: -3.9%"},
      {"compound": "c1nnnn1CCn1cnnn1", "inhibition": "inactive: -4.2%"},
      {"compound": "O=P1(Nc2nc3ccc(Cl)cc3s2)COc2ccccc2O1", "note": "(stereo not given)", "inhibition": "inactive: -4%"},
      {"compound": "CCOc1ccc(C2=NCC(CBr)S2)cc1", "note": "(stereo not given)", "inhibition": "inactive: 3.5%"},
      {"compound": "CC(C)(C)C(=O)NC(Sc1ccccc1)C(Cl)(Cl)Cl", "note": "(stereo not given)", "inhibition": "inactive: 3.5%"},
      {"compound": "CC(=O)c1ccc(N2CC2c2ccncc2)cc1", "note": "(stereo not given)", "inhibition": "inactive: 26%"},
      {"compound": "Cc1ccccc1CN(C)C(=O)COC(=O)C(O)(c1ccccc1)c1ccccc1", "inhibition": "inactive: 3.3%"},
      {"compound": "C[C@@H]1C=CCP(=O)(Oc2ccccc2)O1", "note": "(stereo not given in full)", "inhibition": "inactive: -4.3%"},
      {"compound": "C[C@H]1OP(=O)(Oc2ccccc2)C[C@@H]2O[C@@H]21", "note": "(stereo not given in full)", "inhibition": "inactive: 4.7%"},
      {"compound": "CC(=O)Nc1ccc([As](=O)(O)O)c(O)c1", "inhibition": "inactive: -12.1%"},
      {"compound": "CC(=O)Nc1ccc(Oc2c([N+](=O)[O-])cc([N+](=O)[O-])cc2[N+](=O)[O-])cc1", "inhibition": "inactive: -2.9%"},
      {"compound": "CCNC(=S)/N=C(\\N)N[N+](=O)[O-]", "inhibition": "inactive: 7.1%"},
      {"compound": "O=C(NC1CCS(=O)(=O)C1)NP(=S)(Oc1ccccc1)Oc1ccccc1", "note": "(stereo not given)", "inhibition": "inactive: 3.1%"},
      {"compound": "c1ccc(-c2nn[nH]n2)c(-c2nn[nH]n2)c1", "inhibition": "inactive: -9.2%"},
      {"compound": "CCOC(=O)NC(Sc1ccccc1)C(Cl)(Cl)Cl", "note": "(stereo not given)", "inhibition": "inactive: 16.4%"},
      {"compound": "Cc1ccc(NP(=O)(Oc2cccc(C)c2)Oc2cccc(C)c2)nc1", "inhibition": "inactive: -18.2%"},
      {"compound": "COC(=O)c1cc2c(s1)N=C(c1ccccc1)N(C)P2(=O)N1CCOCC1", "note": "(stereo not given)", "inhibition": "inactive: -5.4%"},
      {"compound": "Cc1ccc(OP(=O)(Nc2ccccn2)Oc2ccc(C)cc2)cc1", "inhibition": "inactive: -8.8%"},
      {"compound": "CC(=O)NC(SC(=S)N(CC(C)C)CC(C)C)C(Cl)(Cl)Cl", "note": "(stereo not given)", "inhibition": "inactive: -29.4%"},
      {"compound": "O=C(OC1CN2CCC1CC2)c1ccccc1", "note": "(stereo not given)", "inhibition": "inactive: -9.3%"},
      {"compound": "CCC(=O)N1C2C3N(C(=O)CC)C1C1N(C(=O)CC)C(C(N1C(=O)CC)N3C(=O)CC)N2C(=O)CC", "inhibition": "inactive: -5.7%"},
      {"compound": "Cc1ccccc1OP(=O)(Nc1ccccn1)Oc1ccccc1C", "inhibition": "inactive: -10.4%"},
      {"compound": "CC(NC(=O)COC(=O)C(O)(c1ccccc1)c1ccccc1)c1ccccc1", "note": "(stereo not given)", "inhibition": "inactive: 2.7%"},
      {"compound": "CN(C)C(=O)Oc1noc2ccccc12", "inhibition": "inactive: 9.5%"}
    ]}
  ]
}
